{
  "source": "patent US7247315B2",
  "test": "In vitro fentanyl permeation (flux) through human cadaver skin, flow-through permeation cell at 32° C.",
  "details": "32 deg. C.",
  "note": "Some compounds may have been tested in ways that are not shown here.",
  "data": [
    {"compound": "CCC(=O)N(c1ccccc1)C1CCN(CCc2ccccc2)CC1", "values": [
      {"measurement": "fentanyl flux rate", "setting": "same type of patch system with less than a fentanyl flux rate lowering effective amount of plasticizer (FIG. 5, curve 530)", "value": "about 5 μg/cm^2hr"},
      {"measurement": "fentanyl flux rate", "setting": "same type of patch system with more than a fentanyl flux rate lowering effective amount of plasticizer (FIG. 4, 440)", "value": "about 16 μg/cm^2hr"},
      {"measurement": "fentanyl flux rate", "setting": "transdermal delivery patch with a fentanyl flux rate lowering effective plasticizer loading (FIG. 5, curve 540)", "value": "about 3 μg/cm^2hr"}
    ]}
  ]
}
